Results on 36 molecules are retold here after patent US20230218577A1, “USE OF HEAT SHOCK PROTEIN INHIBITORS FOR THE TREATMENT OF NEURODEVELOPMENTAL DISORDERS” (The Children's Medical Center Corporation, priority 2020, published 2023).

In this experiment the test system is mTORC1 activity (pS6) in Tsc2-sh hippocampal neurons. Nature of the experiment: mTORC1 high-content screen (mTORC1^HCA) with the Biomol collection library.
The mark [1] stands for this setting: Z-score of percent GFP+pS6+ neurons in compound-treated Tsc2-knockdown wells, DIV20, Biomol library screen, replica 1.
Where [2] appears, read: Z-score of percent GFP+pS6+ neurons in compound-treated Tsc2-knockdown wells, DIV20, Biomol library screen, replica 2.
The mark [3] stands for this setting: Z-score of percent GFP+pS6+ neurons in compound-treated Tsc2-knockdown wells, DIV20, Biomol library, replica 1.
The mark [4] stands for this setting: Z-score of percent GFP+pS6+ neurons in compound-treated Tsc2-knockdown wells, DIV20, Biomol library, replica 2.

The structures appear in SMILES notation. Read-outs that look alike come from different tables or passages of the source. Square brackets hold non-standard residues; d marks the D form. Peptide text beside a SMILES is read from it. * marks the point of attachment. Sta = CC(C)C[C@H](N)[C@@H](O)CC(=O)O; Isovaleryl = CC(C)CC(=O)*

Turning to `CCCCCCCCCCCCCCCCCCOC[C@H](COP(=O)([O-])OCC[N+](C)(C)C)OC(C)=O` [PAF C18], the “T2 Zscore (Replica 1)” value was 0.1238 and the “T2 Zscore (Replica 2)” value was determined as 0.06865.
In the same order, the values of `COC(=O)C1=C(C)NC(C)=C(C(=O)OCCSc2ccccc2)C1C` (stereo not drawn) [PCA 4248] are −0.3678 and −0.1661.
In the same order, the values of `CC1(C)Oc2ccc(C#N)cc2[C@@H](OC2=CC(=O)CC2)[C@@H]1O` [PCO-400] are 0.7699 and 1.481.
For the molecule `COc1cccc(-c2cc(=O)c3ccccc3o2)c1N` [PD 98059], the “T2 Zscore (Replica 1)” value is reported as −0.4787 and the “T2 Zscore (Replica 2)” value is −0.3382.
The corresponding values for `CC(C)(C)n1nc(-c2ccc(Cl)cc2)c2c(N)ncnc21` [PP2] are 0.7427 and 0.2943.
The corresponding values for `O=C1C2CCN(CC2)C1(CO)CO` [PRIMA-1] are 0.6315 and 0.9219.
`CCCCCCCCCCCCCCCC(=O)NCCO` [Palmitylethanolamide]: under setting [1], the “T2 Zscore (Replica 1)” value is listed as −0.03603. Moreover, the “T2 Zscore (Replica 2)” value under setting [2] was found to be 1.796.
For `CC(C)(O)[C@H]1O[C@H]2CC[C@@]3(C)[C@@](O)(CC[C@H]4Cc5c([nH]c6ccccc56)[C@@]43C)C2=CC1=O` [Paxilline], the “T2 Zscore (Replica 1)” value is recorded as 0.6003 and the “T2 Zscore (Replica 2)” value is reported as −0.3283.
In the same order, the values of `C=C(C)[C@H]1O[C@H]2CC[C@@]3(C)[C@@](O)(CC[C@H]4[C@@H]5OC(C)(C)[C@H]6C[C@@H]7C(=C)Cc8c(Cl)cc9[nH]c(c5c9c8[C@@]76O)[C@@]43C)[C@@]23O[C@H]3[C@H]1O` [Penitrem A] are −0.8454 and 2.556.
Turning to `CC(C)CC(=O)N[C@H](C(=O)N[C@H](C(=O)N[C@@H](CC(C)C)[C@@H](O)CC(=O)N[C@@H](C)C(=O)N[C@@H](CC(C)C)[C@@H](O)CC(=O)O)C(C)C)C(C)C` [Pepstatin] (Isovaleryl-VV[Sta]A[Sta]-OH), the “T2 Zscore (Replica 1)” value was −0.4556 and the “T2 Zscore (Replica 2)” value is on record as −0.5908.
`NC(=Nc1ccccc1)NC(=O)c1nc(Cl)c(N)nc1N` [Phenamil]: the “T2 Zscore (Replica 1)” value under setting [1] is 0.6466. The “T2 Zscore (Replica 2)” value under setting [2] is given as −0.381.
For `CC(COc1ccccc1)N(CCCl)Cc1ccccc1` (stereo not drawn) [Phenoxybenzamine], the “T2 Zscore (Replica 1)” value is reported as 0.3205 and the “T2 Zscore (Replica 2)” value was determined as 0.3192.
In the case of `Cc1ccc(N(CC2=NCCN2)c2cccc(O)c2)cc1` [Phentolamine], under setting [1], the “T2 Zscore (Replica 1)” value is listed as 1.591. In addition, the “T2 Zscore (Replica 2)” value under setting [2] is on record as −0.1789.
As to `CCCCCCCCCCCCCC(=O)O[C@@H]1[C@@H](C)[C@@]2(O)[C@@H](C=C(CO)C[C@]3(O)C(=O)C(C)=C[C@@H]23)[C@@H]2C(C)(C)[C@]12OC(C)=O` [Phorbol 12-myristate 13-acetate], the “T2 Zscore (Replica 1)” value is on record as −0.1442 and the “T2 Zscore (Replica 2)” value is 0.5254.
As for `Oc1cc(O)cc(/C=C/c2ccc(O)c(O)c2)c1` [Piceatannol], the “T2 Zscore (Replica 1)” value under setting [1] came out at 0.4133. Moreover, the “T2 Zscore (Replica 2)” value under setting [2] is reported as 1.538.
Regarding `Cc1ccc(C(=O)Cn2c3c(sc2=N)CCCC3)cc1` [Pifithrin-α], the “T2 Zscore (Replica 1)” value is 0.5599 and the “T2 Zscore (Replica 2)” value is listed as −0.2488.
For the molecule `CC(N/C(=N\C#N)Nc1ccncc1)C(C)(C)C` (stereo not drawn) [Pinacidil], the “T2 Zscore (Replica 1)” value under setting [1] is −0.5727. Besides, under setting [2], the “T2 Zscore (Replica 2)” value was 0.9147.
In the same order, the values of `CN1C(C(=O)Nc2ccccn2)=C(O)c2ccccc2S1(=O)=O` [Piroxicam] are 0.5738 and −0.04834.
On to `COc1cc2nc(N3CCN(C(=O)c4ccco4)CC3)nc(N)c2cc1OC` [Prazocin], for which the “T2 Zscore (Replica 1)” value was 0.4809 and the “T2 Zscore (Replica 2)” value was found to be 0.9591.
On to `CC(=O)[C@H]1[C@H](C#N)C[C@H]2[C@@H]3CC=C4C[C@@H](O)CC[C@]4(C)[C@H]3CC[C@@]21C` [Pregnenolone-16α-carbonitrile], for which the “T2 Zscore (Replica 1)” value stood at 0.899 and the “T2 Zscore (Replica 2)” value is given as −0.3046.
With `CCN(CC)CCNC(=O)c1ccc(N)cc1` [Procainamide], the “T2 Zscore (Replica 1)” value under setting [1] stood at 0.3602. Further, the “T2 Zscore (Replica 2)” value under setting [2] is given as 0.5304.
On to `CC[N+](C)(CC)CCC[n+]1c(-c2ccccc2)c2cc(N)ccc2c2ccc(N)cc21.[I-].[I-]` [Propidium iodide], for which the “T2 Zscore (Replica 1)” value under setting [1] was −0.1023. The “T2 Zscore (Replica 2)” value under setting [2] is given as 0.1909.
For the molecule `CCCCC[C@H](O)/C=C/[C@H]1C=CC(=O)[C@@H]1CCCCCCC(=O)O` [Prostaglandin A1], the “T2 Zscore (Replica 1)” value is recorded as −0.6811 and the “T2 Zscore (Replica 2)” value came out at 0.7319.
As to `CCCCC[C@H](O)/C=C/C1=C(CCCCCCC(=O)O)C(=O)CC1` [Prostaglandin B1], the “T2 Zscore (Replica 1)” value is given as 0.1925 and the “T2 Zscore (Replica 2)” value is −0.4985.
For the molecule `CCCCC[C@H](O)/C=C/[C@H]1C(=O)C[C@H](O)[C@@H]1C/C=C\CCCC(=O)O` [Prostaglandin D2], under setting [3], the “T2 Zscore (Replica 1)” value was determined as 0.7735. The “T2 Zscore (Replica 2)” value under setting [4] came to 1.618.
`CCCCC[C@H](O)/C=C/[C@H]1[C@H](O)CC(=O)[C@@H]1CCCCCCC(=O)O` [Prostaglandin E1]: the “T2 Zscore (Replica 1)” value under setting [1] turned out to be 1.252. Further, the “T2 Zscore (Replica 2)” value under setting [2] is −0.5248.
On to `CCCCC[C@H](O)/C=C/[C@H]1[C@H](O)CC(=O)[C@@H]1C/C=C\CCCC(=O)O` [Prostaglandin E2], for which the “T2 Zscore (Replica 1)” value under setting [3] is reported as 0.6938. The “T2 Zscore (Replica 2)” value under setting [4] came to 1.301.
Consider `CCCCC[C@H](O)/C=C/[C@@H]1[C@@H](CCCCCCC(=O)O)[C@@H](O)C[C@H]1O` [Prostaglandin F1a], for which the “T2 Zscore (Replica 1)” value is listed as −0.8799 and the “T2 Zscore (Replica 2)” value is on record as −0.6804.
On to `CC[N+](CC)(CC)CC(=O)Nc1c(C)cccc1C` [QX-314], for which the “T2 Zscore (Replica 1)” value stood at 1.301 and the “T2 Zscore (Replica 2)” value is reported as −1.406.
For the molecule `C=C[C@H]1CN2CC[C@H]1C[C@@H]2[C@@H](O)c1ccnc2ccc(OC)cc12.Cl.O` [Quinidine • HCl • H2O], the “T2 Zscore (Replica 1)” value under setting [1] is 1.364. The “T2 Zscore (Replica 2)” value under setting [2] is reported as 0.1291.
For `C=C[C@H]1CN2CC[C@H]1C[C@H]2[C@H](O)c1ccnc2ccc(OC)cc12.Cl.O.O` [Quinine HCl • 2H2O], under setting [1], the “T2 Zscore (Replica 1)” value was 0.4225. Under setting [2], the “T2 Zscore (Replica 2)” value was found to be 0.3907.
Regarding `C[C@@]1(C2CCCC2)Cc2cc(OCC(=O)O)c(Cl)c(Cl)c2C1=O` [R(+)-IAA-94], the “T2 Zscore (Replica 1)” value was found to be 0.6402 and the “T2 Zscore (Replica 2)” value is on record as 0.5789.
Regarding `COC(=O)C1=C(C)NC(C)=C([N+](=O)[O-])C1c1ccccc1C(F)(F)F` (stereo not drawn) [R)-(+)-BAY K-8644], under setting [1], the “T2 Zscore (Replica 1)” value is 0.9402. The “T2 Zscore (Replica 2)” value under setting [2] is reported as 0.31.
Consider `N#C/C(=C\c1cc(Cl)cc(Cl)c1)c1cccnc1` [RG-14620], for which the “T2 Zscore (Replica 1)” value is on record as −0.9463 and the “T2 Zscore (Replica 2)” value is reported as 0.845.
In the same order, the values of `O=C(NCCCCCCNC(=O)ON=C1CCCCC1)ON=C1CCCCC1` [RHC-80267] are 0.3508 and −0.1002.
With `CCCCCCCCCCCCCCCC(=O)C1=C(O)C(CO)OC1=O` (stereo not drawn) [RK-682], the “T2 Zscore (Replica 1)” value came out at 1.329 and the “T2 Zscore (Replica 2)” value is listed as −0.1327.
